Results taken from US8440708B2, “Triazole-substituted arylamides as P2X3 and P2X2/3 antagonists” (Roche Palo Alto LLC, priority 2007, dated 2013).

By UniProt entry, the sequences of proteins in these tests, tags left out.
UniProt P56373, whole entry: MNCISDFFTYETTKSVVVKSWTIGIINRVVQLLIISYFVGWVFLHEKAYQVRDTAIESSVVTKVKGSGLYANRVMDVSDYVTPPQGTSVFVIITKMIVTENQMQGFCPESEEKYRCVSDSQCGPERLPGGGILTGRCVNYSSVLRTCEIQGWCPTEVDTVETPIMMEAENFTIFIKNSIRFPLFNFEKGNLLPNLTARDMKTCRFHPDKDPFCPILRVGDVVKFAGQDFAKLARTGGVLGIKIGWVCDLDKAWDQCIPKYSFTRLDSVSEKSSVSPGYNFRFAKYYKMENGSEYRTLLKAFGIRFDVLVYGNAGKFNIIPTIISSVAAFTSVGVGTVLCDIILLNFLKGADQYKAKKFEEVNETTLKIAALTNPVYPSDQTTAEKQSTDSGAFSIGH
UniProt Q9UBL9, whole entry: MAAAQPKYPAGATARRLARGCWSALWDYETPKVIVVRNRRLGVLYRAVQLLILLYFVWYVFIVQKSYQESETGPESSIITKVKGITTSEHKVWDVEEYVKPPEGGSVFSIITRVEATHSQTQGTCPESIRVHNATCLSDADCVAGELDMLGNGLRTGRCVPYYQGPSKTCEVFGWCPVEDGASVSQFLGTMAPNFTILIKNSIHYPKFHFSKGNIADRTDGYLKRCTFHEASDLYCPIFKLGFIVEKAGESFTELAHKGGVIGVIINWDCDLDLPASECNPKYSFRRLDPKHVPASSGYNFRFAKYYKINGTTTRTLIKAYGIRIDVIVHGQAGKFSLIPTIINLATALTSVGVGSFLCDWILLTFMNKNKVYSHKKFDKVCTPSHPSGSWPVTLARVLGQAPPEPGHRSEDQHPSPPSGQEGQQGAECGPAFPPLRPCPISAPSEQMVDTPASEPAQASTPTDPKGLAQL
UniProt P49654, whole entry: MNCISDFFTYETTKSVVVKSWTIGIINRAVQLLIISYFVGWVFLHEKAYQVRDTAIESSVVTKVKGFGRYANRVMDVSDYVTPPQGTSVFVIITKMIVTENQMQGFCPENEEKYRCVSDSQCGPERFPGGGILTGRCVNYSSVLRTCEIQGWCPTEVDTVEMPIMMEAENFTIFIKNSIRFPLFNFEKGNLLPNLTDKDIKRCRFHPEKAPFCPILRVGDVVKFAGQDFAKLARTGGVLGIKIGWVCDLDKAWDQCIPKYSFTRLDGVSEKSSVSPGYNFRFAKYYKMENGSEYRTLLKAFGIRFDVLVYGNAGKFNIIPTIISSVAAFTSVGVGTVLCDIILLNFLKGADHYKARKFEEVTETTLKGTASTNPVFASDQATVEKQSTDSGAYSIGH

Experiments:
human P2X2/3 receptor = human P2X2/3 receptor (Homo sapiens, UniProt P56373+Q9UBL9); test: P2X3/P2X2/3 FLIPR (Fluorometric Imaging Plate Reader) Assay, P2X2/3; conditions: CHO-K1 cells transfected with human P2X2/3; agonist α,β-meATP 5 μM; Table 1
rat P2X3 receptor = rat P2X3 receptor (Rattus norvegicus, UniProt P49654); test: P2X3/P2X2/3 FLIPR (Fluorometric Imaging Plate Reader) Assay, P2X3; conditions: CHO-K1 cells transfected with rat P2X3; agonist α,β-meATP 1 μM; Table 1
Method: P2X3/P2X2/3 FLIPR (Fluorometric Imaging Plate Reader) Assay
CHO-K1 cells were transfected with cloned rat P2X3 or human P2X2/3 receptor subunits and passaged in flasks. 18-24 hours before the FLIPR experiment, cells were released from their flasks, centrifuged, and resuspended in nutrient medium at 2.5×10^5 cells/ml. The cells were aliquoted into black-walled 96-well plates at a density of 50,000 cells/well and incubated overnight in 5% CO2 at 37° C. On the day of the experiment, cells were washed in FLIPR buffer (calcium- and magnesium-free Hank's balanced salt solution, 10 mM HEPES, 2 mM CaCl2, 2.5 mM probenecid; FB). […]
Test compounds (dissolved in DMSO at 10 mM and serially diluted with FB) or vehicle were added to each well (25 μl of a 4× solution) and allowed to equilibrate for 20 minutes at room temperature. The plates were then placed in the FLIPR and a baseline fluorescence measurement (excitation at 488 nm and emission at 510-570 nm) was obtained for 10 seconds before a 100 μl/well agonist or vehicle addition. […] Fluorescence was measured for an additional 2 minutes at 1 second intervals after agonist addition. A final addition of ionomycin (5 μM, final concentration) was made to each well of the FLIPR test plate to establish cell viability and maximum fluorescence of dye-bound cytosolic calcium. […]

Cc1ccc(-c2cc(C(=O)NCc3cnc(C)nc3)cc(-n3ncnc3C(F)(F)F)c2)nc1
P2X2/3 pKi (human P2X2/3 receptor): 7.71
P2X3 pKi (rat P2X3 receptor): 8.53
